Measured vapor pressure values of organic chemicals

Vapor pressures (log10 mmHg) refer to near room temperature, 15 to 30 °C; higher is more volatile. "–" marks a cell with nothing listed here.

structure (SMILES)	name	log VP (log10 mmHg)
Clc1ccccc1-c1ccc(Cl)c(Cl)c1Cl	–	-4.035
CCCCCCCCCCCCCN(CC(C)O)CC(C)O (stereo not given)	1,1'-(Tridecylimino)bis-2-propanol	-4.606
CCCCCCCCCCCCCCCCCC(=O)NCCCN(C)C	N-[3-(Dimethylamino)propyl]octadecanamide	-9.593
C/C=C\c1ccc(OCc2ccccc2)c(OC)c1	1-Benzyloxy-2-methoxy-4-(1-propenyl)benzene	-4.722
CCCCCCCCCCCCCCCCCCN	1-Octadecanamine	-4.103
C=CC(C)(O)CC (stereo not given)	1-Penten-3-ol, 3-methyl-	0.836
CC(C)(C)C1CCC2(CC1)OCC(CCl)O2 (stereo not given)	2-Chlormethyl-8-(1,1-dimethylethyl)-1,4-dioxaspiro[4.5]decan	-2.878
C[SiH2]Cl	Chloro(methyl)silane	2.314
CC(=O)Nc1ncc([N+](=O)[O-])s1	Nithiamide	-5.733
COC(C)CCO (stereo not given)	3-Methoxybutan-1-ol	-0.75
C=C(Br)C(=O)Nc1ccc(/N=N/c2c(N)ccc3cc(S(=O)(=O)[O-])cc(O)c23)c(S(=O)(=O)[O-])c1.[Na+].[Na+]	–	-8.254
CCCCCCCCC/C=C/C=O	(E)-Dodec-2-en-1-al	-0.66
CC1CCC(C(C)C)C2(C1)OCC(CO)O2 (stereo not given)	–	-2.824
CCCCCC(CO)CCC (stereo not given)	2-Propyl-1-heptanol	-1.763
C=CC(C)(C)O	2-Methyl-3-buten-2-ol	1.357
CCCCCc1ccccc1	Pentylbenzene	-0.358
O=C([O-])CN(CCO)CCO.[Na+]	N,N-Bis(2-hydroxyethyl)glycine sodium salt	-3.655
O=C1OC(=O)c2cc(Oc3ccc4c(c3)C(=O)OC4=O)ccc21	5,5'-Oxybis(2-benzofuran-1,3-dione)	-7.011
NCCCCCCCCN	1,8-Octanediamine	-2.259
Clc1cc(-c2c(Cl)cc(Cl)c(Cl)c2Cl)c(Cl)c(Cl)c1Cl	2,2',3,3',4,4',5,6'-Octachlorobiphenyl	-5.435
C=C(C)C(=O)OC(=O)C(=C)C	Methacrylic anhydride	-0.171
CC(C)Cc1ccccc1	Isobutylbenzene	0.286
O=C(O)c1cccc2ccccc12	1-Naphthoic acid	-5.054
CC(C(=O)c1ccc(Cl)cc1)C1CC1 (stereo not given)	1-(4-Chlorophenyl)-2-cyclopropylpropan-1-one	-2.682
C=CC(=O)OCCC(C)CCOC(=O)C=C	3-Methyl-1,5-pentanediyl diacrylate	-2.969
CCCCCCCCCCN(C)C	Decyldimethylamine	-1.268
FC(F)(F)C1(F)C(F)(F)C(F)(F)C(F)(F)C(F)(C(F)(F)F)C1(F)F (stereo not given)	Perfluoro-1,3-dimethylcyclohexane	1.549
Oc1ccc(Cl)c(O)c1	4-Chlororesorcinol	-1.894
SCCOCCOCCS	2,2'-[Ethane-1,2-diylbis(oxy)]diethanethiol	-2.413
C=CC1CCC(C=C)C(C=C)C1 (stereo not given)	Cyclohexane, 1,2,4-triethenyl-	-0.335
CC(CC(C)(C)C#N)c1ccccc1 (stereo not given)	2,2-Dimethyl-4-phenylpentanenitrile	-2.25
Cc1cc(C)[nH]n1	3,5-Dimethylpyrazole	-2.418
C[SiH](C)Cl	Chlorodimethylsilane	2.64
COc1c(O)c(OC)c(Cl)c(Cl)c1Cl	Trichlorosyringol	-3.235
CCOC(=O)c1ccnc(C(=O)OCC)c1	Diethyl pyridine-2,4-dicarboxylate	-3.782
O=S(=O)(O)c1ccc(O)cc1	4-Hydroxyphenylsulfonic acid	-6.478

The 5 lowest values of log VP among the entries above:

structure (SMILES)	name	log VP (log10 mmHg)
CCCCCCCCCCCCCCCCCC(=O)NCCCN(C)C	N-[3-(Dimethylamino)propyl]octadecanamide	-9.593
C=C(Br)C(=O)Nc1ccc(/N=N/c2c(N)ccc3cc(S(=O)(=O)[O-])cc(O)c23)c(S(=O)(=O)[O-])c1.[Na+].[Na+]	–	-8.254
O=C1OC(=O)c2cc(Oc3ccc4c(c3)C(=O)OC4=O)ccc21	5,5'-Oxybis(2-benzofuran-1,3-dione)	-7.011
O=S(=O)(O)c1ccc(O)cc1	4-Hydroxyphenylsulfonic acid	-6.478
CC(=O)Nc1ncc([N+](=O)[O-])s1	Nithiamide	-5.733

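The OPERA project collected these measurements from public sources as training and test data for property models. The files give a single number for a compound and property, which may rest on several reports. Method and conditions are not stated for these values. Where a salt, mixture or single isomer is drawn, the source does not say that exactly this form was tested. Unmarked limits or estimates from the upstream databases cannot be ruled out.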

Values as listed in the OPERA 2.9 repository of K. Mansouri.